Results on seven molecules are retold here after PubChem BioAssay AID1235 (PCMD, 2008).

This is a selection; strong and weak results do not stand in their true shares. Calls of active or inactive are those of the source.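 Rule for the calls: active = inhibition above 30% in each of the two pooled mixtures holding the compound, so the lower value exceeds 30%; inactive = the rest.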

The term inhibition denotes the change of the read-out against control, counted positive when it falls.

A short description of this test: blockers of serum C3 deposition on LPS – biochemical, ELISA, human serum, orthogonally pooled compounds, primary screen (AID 1235).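 Note: 0% = serum in Mg-EGTA without compound and 100% = EDTA serum blank.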 Particulars: Human serum alternative complement pathway, LPS-coated ELISA, tested in compound mixtures, at 5 µM, stronger effect = higher value. Put shortly:
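Test system: human serum alternative complement pathway, C3 deposition on LPS-coated wells; also added: Plate-bound LPS; doses: 5 µM per compound in ten-compound mixtures; schedule: 1 h at 37 °C; detection: Anti-C3 ELISA, OD 450 nm; evaluation: percent inhibition of C3 deposition onto LPS; repeats: two pool placements per compound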
A general note: An ELISA detects its analyte on a solid surface through an enzyme-linked reagent.
As for `N#CC1(Nc2ccccc2)CCN(CCc2ccccc2)CC1`, the inhibition is inactive: 14.8%.

As for `COc1ccc(NC2CCN(CCc3ccccc3)CC2)c(OC)c1`, the inhibition is inactive: 10.1%.

Take `O=C(OC1CN2CCC1CC2)C1c2ccccc2Oc2ccccc21` (configuration not stated): the inhibition was inactive: 6.76%.

`CCC(CO)(C(=O)OC1CN2CCC1CC2)c1ccccc1` (configuration not stated): the inhibition is inactive: 9.18%.

Regarding `CCOc1ncccc1C(=O)NCC1(N2CCOCC2)CCCCC1`, the inhibition is inactive: 12.3%.

Regarding `Fc1ccccc1NC1CCN(Cc2ccccc2)CC1`, the inhibition was inactive: 5.15%.

In the case of `N/C(=N\O)c1c(N)no[n+]1[O-]`, the inhibition is inactive: 11.6%.
